Test results taken from patent US20140170237A1, “ANTIMICROBIAL COMPOSITIONS CONTAINING MIXTURES OF FATTY AND HYDROXYL CARBOXYLIC ACIDS” (priority 2012, published 2014).
“Also recorded” adds a separate entry of the source.

Test: Cold solubility / 4 C storage of commercial fatty acids and their mixtures
Format: physicochemical
Settings: 1 day, no solvent or surfactant

SMILES: CCCCCCCCC(=O)O [C9, nonanoic acid]
- 4 C. Storage, physical state: solid or formed crystals; also recorded: Crystallized
